# In US20190135818A1 (SHANGHAI INSTITUTE OF MATERIA MEDICA, CHINESE ACADEMY OF …, priority 2016, published 2019):
# System: human lung cancer NCI-H1581 transplanted tumor
# Assay: Tumor growth inhibition in tumor-bearing mice (subcutaneously transplanted tumor)
# Assay type: in vivo, BALB/cA nude mice
# Experimental: Before using, the compound was diluted with 5% Tween80 in normal saline to the desired concentration (light yellow suspension), and was prepared once a week.
# The positive control drug: AZD4547 (batch number: Lot: S0902A) was a white powder, and stored at −20° C. in the dark. Before using, the compound was diluted with 1% Tween 80 in normal saline to the desired concentration (white suspension), and was prepared once a week.
# Animals: BALB/cA nude mice, male, 3-4 weeks old, produced by Shanghai Institute of Materia Medica, Chinese Academy of Sciences, quality certificate number No. 311613700000120, production license number: SCXK (Shanghai) 2013-0017. Shanghai Drug Administration License No.: SYXK (Shanghai) 2013-0049, the number of animals in each group: 12 in the solvent control group and 6 in the drug-administration group.
# Human lung cancer NCI-H1581 cell line (ATCC, Cat. No. CRL-5878). The cell strain was inoculated in the right axilla of the nude mice, and the amount of cells inoculated was 5×10^6/animal to form transplanted tumor, and passaged in vivo in nude mice by 1 generation before use.
# The tumor tissue in the vigorous growth period was cut into 1.5 mm^3, and inoculated subcutaneously in the right axilla of the nude mice under aseptic conditions. The diameter of the subcutaneously transplanted in a nude mice was measured with a vernier caliper, and the animals were randomly grouped when the average volume of tumors was about 220 mm^3. […] The solvent control group was given an equal amount of normal saline. The diameter of the transplanted tumor was measured twice a week during the entire experiment, and the body weights of the mice were weighed. The calculation formula of tumor volume (TV) is: TV=1/2×a×b2, where a and b respectively represent the length and width of the tumor. The relative tumor volume (RTV) was calculated based on the measured results and the formula was: RTV=Vt/V0. Where V0 is the tumor volume measured before grouping and dosing (d0), and Vt is the tumor volume at each measurement. […]
Molecule,body weight (g) d13 (A26 50 mg/kg ip qd/13) [g],"body weight (g) d0 (AZD4547 12.5 mg/kg po qd/13, d0) [g]",body weight (g) d13 (AZD4547 12.5 mg/kg po qd/13) [g]
"Cc1c(-c2c3c(N)n[nH]c(=O)c3nn2-c2ccc(NC(=O)/C=C/CN(C)C)cc2)oc2ccc(Cl)cc12 [Compound A26, (2E)-N-{4-[4-amino-3-(5-chloro-3-methyl-1-benzofuran-2-yl)-7-carbonyl-6,7-dihydro-2H-pyrazolo[3,4-d]pyridazin-2-yl]phenyl}-4-(dimethylamino)but-2-enamide]",19.9,,
AZD4547 [reference compound],,17.3,19.9
